One substance from patent US6331660A, “Maize DIMBOA biosynthesis genes” (Dekalb Genetics Corporation, priority 1998, dated 2001) can be followed below.

The test system of this series is O=P(O)(O)OCC(O)C(O)c1c[nH]c2ccccc12. The experiment in a line: purified protein, by the assay type. To be noted: other: 4 μg Bx1 protein, 22° C., indole-3-glycerol phosphate 0 to 50 μM, coupled with glyceraldehyde phosphate dehydrogenase and 0.5 mM NAD.

As usually defined, the Km is the concentration of substrate that gives half-maximal velocity. In general, kcat refers to the number of substrate molecules converted per active site and unit of time at saturation.

For the substance “maize Bx1 protein (Bx1 cDNA SEQ ID NO:1; polypeptide SEQ ID NO:2), expressed in E. coli, COOH-terminal histidine tag, independent of TSB (Zea mays)”, the Km was 13 µM and the kcat is 2.8 s⁻¹.
